Experiment: surface iodination, anti-CD3 epsilon co-immunoprecipitation, SDS-PAGE
Conditions: glycan lost; control: J76 (wild-type CD3 gamma)

Substance: CD3 gamma: N30Q
- oligomerisation: no change

Substance: CD3 gamma: N70Q
- oligomerisation: no change

Source: paper PMC2120718
